Test results as given in patent US4865837A, “Aldoxime-substituted triazolium compounds useful in the treatment of poisoning by phosphorus-containing chemicals” (dated 1989).

Key:
[1] = test system: acetylcholinesterase (inactivated by Soman); conditions: in words; amounts listed in Table I
[2] = test system: acetylcholinesterase (inactivated by Soman); conditions: in words; amounts listed in Table II

C[n+]1ccccc1C=NO.[Cl-]
mice treated with 2-PAM that survived [1]: none of the mice treated with 2-PAM, in the amounts listed, survived | mice treated with 2-PAM that survived [2]: none of the mice treated with 2-PAM, in the amounts listed, survived

Like-named read-outs stand apart in the source and are kept apart here.
